Laboratory results from ChEMBL document CHEMBL4406909, “Synthesis and evaluation of 1,3,5-triazine derivatives as sunscreens useful to prevent skin cancer” (Bioorg Med Chem Lett, 2019).

Legend:
Assay type in all cases: functional
[1] = Antioxidant activity assessed as DPPH free radical scavenging activity at 200 uM incubated for 60 mins by spectrophotometric method relative to control
[2] = Antioxidant activity assessed as DPPH free radical scavenging activity at 300 uM incubated for 60 mins by spectrophotometric method relative to control
[3] = Antioxidant activity assessed as DPPH free radical scavenging activity at 100 uM incubated for 60 mins by spectrophotometric method relative to control
[4] = Antioxidant activity assessed as DPPH free radical scavenging activity at 400 uM incubated for 60 mins by spectrophotometric method relative to control

O=C1O[C@H]([C@@H](O)CO)C(O)=C1O
Activity [1]: 81.5% | Activity [2]: 81.7% | Activity [3]: 77.8% | Activity [4]: 82.1%
